# In PubChem BioAssay (Tox21):
# The chains behind the UniProt entries cited, without tags or fusion partners. Where a name states a change or a piece, a line headed by the entry shows the natural chain unless it says otherwise.
# UniProt P34981: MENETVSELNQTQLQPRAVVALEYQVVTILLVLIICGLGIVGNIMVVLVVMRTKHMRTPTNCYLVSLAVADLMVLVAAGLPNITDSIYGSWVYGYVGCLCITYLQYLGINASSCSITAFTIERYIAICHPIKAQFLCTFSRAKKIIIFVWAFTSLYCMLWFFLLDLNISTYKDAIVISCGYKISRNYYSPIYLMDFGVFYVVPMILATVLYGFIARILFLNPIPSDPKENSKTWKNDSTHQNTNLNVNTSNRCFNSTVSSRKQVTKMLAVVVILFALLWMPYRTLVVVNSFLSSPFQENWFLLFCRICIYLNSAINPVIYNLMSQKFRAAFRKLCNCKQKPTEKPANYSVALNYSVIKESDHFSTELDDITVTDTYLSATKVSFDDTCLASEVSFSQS
# UniProt O75469: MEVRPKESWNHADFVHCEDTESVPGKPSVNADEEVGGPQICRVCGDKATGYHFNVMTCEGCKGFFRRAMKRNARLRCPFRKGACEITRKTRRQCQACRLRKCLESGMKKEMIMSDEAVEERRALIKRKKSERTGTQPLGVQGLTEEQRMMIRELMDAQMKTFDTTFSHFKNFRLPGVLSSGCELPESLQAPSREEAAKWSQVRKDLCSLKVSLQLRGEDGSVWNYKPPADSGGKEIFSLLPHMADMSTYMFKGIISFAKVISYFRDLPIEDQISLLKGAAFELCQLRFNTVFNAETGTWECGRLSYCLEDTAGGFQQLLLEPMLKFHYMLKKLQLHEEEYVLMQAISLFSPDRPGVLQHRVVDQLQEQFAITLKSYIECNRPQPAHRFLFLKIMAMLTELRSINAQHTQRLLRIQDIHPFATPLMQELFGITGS
# UniProt P22303: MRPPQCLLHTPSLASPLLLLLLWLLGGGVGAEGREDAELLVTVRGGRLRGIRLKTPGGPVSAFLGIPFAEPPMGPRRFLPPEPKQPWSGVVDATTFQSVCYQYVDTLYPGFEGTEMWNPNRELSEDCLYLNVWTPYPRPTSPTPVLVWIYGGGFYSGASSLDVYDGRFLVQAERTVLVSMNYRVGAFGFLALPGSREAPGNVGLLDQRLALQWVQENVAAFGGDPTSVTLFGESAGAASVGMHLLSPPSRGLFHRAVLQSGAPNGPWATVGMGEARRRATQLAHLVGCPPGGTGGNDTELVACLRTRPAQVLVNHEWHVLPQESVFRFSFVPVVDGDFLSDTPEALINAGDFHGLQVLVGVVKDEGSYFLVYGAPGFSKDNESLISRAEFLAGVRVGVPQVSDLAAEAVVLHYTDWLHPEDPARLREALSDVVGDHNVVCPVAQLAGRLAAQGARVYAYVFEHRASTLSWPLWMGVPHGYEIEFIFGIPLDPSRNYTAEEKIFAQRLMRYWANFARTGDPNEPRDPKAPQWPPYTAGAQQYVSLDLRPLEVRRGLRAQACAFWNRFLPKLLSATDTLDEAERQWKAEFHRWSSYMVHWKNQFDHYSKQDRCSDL
# UniProt P10635, whole entry, looked up: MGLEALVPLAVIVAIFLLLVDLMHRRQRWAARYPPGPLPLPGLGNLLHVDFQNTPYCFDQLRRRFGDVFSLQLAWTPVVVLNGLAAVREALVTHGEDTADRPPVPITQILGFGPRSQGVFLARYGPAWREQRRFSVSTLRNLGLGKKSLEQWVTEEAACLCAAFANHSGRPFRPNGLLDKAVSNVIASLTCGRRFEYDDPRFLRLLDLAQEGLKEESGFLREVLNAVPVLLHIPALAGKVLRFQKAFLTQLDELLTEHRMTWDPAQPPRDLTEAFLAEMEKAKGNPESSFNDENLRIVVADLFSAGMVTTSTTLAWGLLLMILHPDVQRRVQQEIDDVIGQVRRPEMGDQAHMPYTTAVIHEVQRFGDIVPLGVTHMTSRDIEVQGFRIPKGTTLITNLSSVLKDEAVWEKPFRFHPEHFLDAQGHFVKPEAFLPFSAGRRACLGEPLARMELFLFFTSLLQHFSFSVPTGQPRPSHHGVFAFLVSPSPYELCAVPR
# UniProt P11712, whole entry, looked up: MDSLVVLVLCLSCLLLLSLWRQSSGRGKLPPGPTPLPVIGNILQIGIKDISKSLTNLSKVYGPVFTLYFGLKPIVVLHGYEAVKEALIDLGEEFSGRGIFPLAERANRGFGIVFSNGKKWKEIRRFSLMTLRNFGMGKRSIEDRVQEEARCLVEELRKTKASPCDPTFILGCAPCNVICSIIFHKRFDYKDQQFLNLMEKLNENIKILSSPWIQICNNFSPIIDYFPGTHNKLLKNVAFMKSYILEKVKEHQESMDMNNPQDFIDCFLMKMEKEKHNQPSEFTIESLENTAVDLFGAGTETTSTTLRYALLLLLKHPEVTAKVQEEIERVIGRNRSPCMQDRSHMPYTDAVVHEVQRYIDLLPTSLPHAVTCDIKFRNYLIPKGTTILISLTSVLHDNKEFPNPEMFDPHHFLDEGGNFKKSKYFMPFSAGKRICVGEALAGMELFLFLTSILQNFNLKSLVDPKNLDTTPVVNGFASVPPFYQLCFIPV
# UniProt Q12809: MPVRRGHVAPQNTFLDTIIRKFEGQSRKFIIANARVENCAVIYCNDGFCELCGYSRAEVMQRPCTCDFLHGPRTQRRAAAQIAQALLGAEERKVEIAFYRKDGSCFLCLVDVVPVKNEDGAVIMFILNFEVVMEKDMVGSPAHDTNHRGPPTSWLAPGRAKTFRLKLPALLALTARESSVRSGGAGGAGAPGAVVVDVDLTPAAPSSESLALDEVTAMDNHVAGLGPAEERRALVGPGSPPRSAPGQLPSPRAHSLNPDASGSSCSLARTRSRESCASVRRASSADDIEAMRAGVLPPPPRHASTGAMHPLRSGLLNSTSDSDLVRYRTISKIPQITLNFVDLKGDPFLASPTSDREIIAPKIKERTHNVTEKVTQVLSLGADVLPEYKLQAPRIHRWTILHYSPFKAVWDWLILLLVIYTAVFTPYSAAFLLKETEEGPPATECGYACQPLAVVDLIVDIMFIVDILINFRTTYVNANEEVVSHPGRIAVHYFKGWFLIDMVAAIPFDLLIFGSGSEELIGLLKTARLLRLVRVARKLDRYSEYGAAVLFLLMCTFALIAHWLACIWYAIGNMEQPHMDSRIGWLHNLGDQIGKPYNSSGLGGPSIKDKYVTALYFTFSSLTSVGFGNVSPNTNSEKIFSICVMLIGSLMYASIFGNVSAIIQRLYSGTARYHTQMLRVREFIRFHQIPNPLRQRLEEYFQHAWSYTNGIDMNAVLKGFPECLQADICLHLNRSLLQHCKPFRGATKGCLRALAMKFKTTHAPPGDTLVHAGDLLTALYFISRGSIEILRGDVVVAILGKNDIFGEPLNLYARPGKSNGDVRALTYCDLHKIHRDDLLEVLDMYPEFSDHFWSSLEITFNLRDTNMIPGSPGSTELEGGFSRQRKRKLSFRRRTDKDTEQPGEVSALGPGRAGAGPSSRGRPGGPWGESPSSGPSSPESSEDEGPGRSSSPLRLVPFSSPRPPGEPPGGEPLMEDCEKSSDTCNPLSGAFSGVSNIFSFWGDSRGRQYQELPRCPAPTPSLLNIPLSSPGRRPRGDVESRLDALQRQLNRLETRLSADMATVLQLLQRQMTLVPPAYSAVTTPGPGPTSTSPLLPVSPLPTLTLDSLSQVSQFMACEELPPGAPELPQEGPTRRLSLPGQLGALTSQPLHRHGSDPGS
# UniProt P08684, whole entry, looked up: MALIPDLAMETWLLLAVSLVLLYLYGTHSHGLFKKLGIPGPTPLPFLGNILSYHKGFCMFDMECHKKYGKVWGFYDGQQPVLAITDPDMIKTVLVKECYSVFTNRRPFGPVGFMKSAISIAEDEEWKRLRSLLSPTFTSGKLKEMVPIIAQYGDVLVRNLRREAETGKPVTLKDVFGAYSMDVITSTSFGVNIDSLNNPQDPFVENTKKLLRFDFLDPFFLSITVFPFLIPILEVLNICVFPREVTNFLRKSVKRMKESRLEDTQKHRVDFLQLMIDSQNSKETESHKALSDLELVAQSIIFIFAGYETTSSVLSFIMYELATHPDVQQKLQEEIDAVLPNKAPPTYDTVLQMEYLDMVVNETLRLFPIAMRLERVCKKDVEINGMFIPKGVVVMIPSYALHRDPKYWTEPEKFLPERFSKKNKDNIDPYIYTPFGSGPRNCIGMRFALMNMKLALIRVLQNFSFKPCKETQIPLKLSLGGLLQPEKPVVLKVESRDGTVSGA
# Values joined by “and” are separate entries in the source; they are usually repeats but may differ in a detail not shown here. Equal values may be shown once. This is a selection; strong and weak results do not stand in their true shares. Inconclusive results are not listed. Where a call stands in place of a potency, no number is given. Where a structure was tested more than once in an assay, its records may differ in their call. Active and inactive are the calls of the source. Unless noted, the call rests on the fitted dose curve; in most records, active means well fitted curve in the direction sought with a large enough effect in the repeat runs; inconclusive means weak or mixed curves; inactive means no such curve, though single readings can be large; an effect the other way counts as inactive or inconclusive.
# Legend:
# [1] = qHTS assay to identify small molecule agonists of the TGF-beta/Smad signaling pathway - cell viability counter screen (AID 1346829); further: nearly all actives have a fitted effect of over 45% in size; further: potency means the concentration at half of the fitted maximal effect
# Procedure, shortened: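 Here the cytotoxicity of library compounds is measured in SBE-bla HEK 293T cells treated for 5 hr, using CellTiter-Glo added to wells already read for the beta-lactamase reporter.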
# [2] = qHTS assay to identify small molecule agonists of the TGF-beta/Smad signaling pathway (AID 1346859; active means well fitted activation curve with a large enough effect in the signal ratio in the repeat runs, not every such curve was filed as active; the % refers to the signal ratio); settings: SBE-bla HEK293T, TGF-beta/Smad beta-lactamase reporter, 5 h; at 76.8 µM (top of the series) unless noted
# Procedure, shortened: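 Fluorescence (ex 405 nm; em 460 and 530 nm) was read 2 h after LiveBLAzer FRET substrate at RT. The preceding compound treatment of overnight-plated SBE-bla HEK293T cells lasted 5 h at 37 C.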
# [3] = target: Thyrotropin-releasing hormone receptor (Homo sapiens) (UniProt P34981); assay: qHTS assay to identify small molecule antagonists of the thyrotropin-releasing hormone receptor (TRHR) signaling pathway (AID 1346877; active means well fitted inhibition curve with a large enough effect in the repeat runs, not every such curve was filed as active; further: potency means the concentration at half of the fitted maximal effect)
# [4] = target: Thyrotropin-releasing hormone receptor (Homo sapiens) (UniProt P34981); assay: qHTS assay to identify small molecule agonists of the thyrotropin-releasing hormone receptor (TRHR) signaling pathway (AID 1346891; calls by dose curve;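 further: HEK293 cells expressing TRHR with calcium dye readout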); settings: TRHR-HEK293 calcium fluorescence, agonist mode; at 57.6 µM (top of the series) unless noted
# [5] = Human pregnane X receptor (PXR) small molecule agonists, qHTS cell viability counter screen (AID 1346977); further: nearly all actives have a fitted effect of over 50% in size; further: potency means the concentration at half of the fitted maximal effect
# Procedure, shortened: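 Same-well viability read: CellTiter-Fluor added after 23 hr compound exposure, fluorescence measured 1 hr later. Cells were PXR-Luc HepG2 seeded at 2,000/well in 5% charcoal-stripped FBS medium, rested 5 hr before dosing at 37 C.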
# [6] = Caspase-3/7 induction in CHO-K1 cells by small molecules, qHTS assay (AID 1346980); settings: CHO-K1 caspase-3/7 induction, Caspase-Glo luminescence, 17 h; at 92.4 µM (top of the series) unless noted; further: nearly all actives have a fitted effect of over 15% in size
# Procedure, shortened: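 Wild-type CHO-K1 cells exposed to compounds for 17hr at 37 C, 5% CO2. Caspase-3/7 activity then measured by Caspase-Glo 3/7 luminescence after 30min at room temperature.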
# [7] = Caspase-3/7 induction in HepG2 cells by small molecules, qHTS cell viability counter screen (AID 1346981); further: nearly all actives have a fitted effect of over 30% in size
# Procedure, shortened: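 Fluorescence read-out of live-cell protease activity (CellTiter-Fluor) after 1 hr with reagent. This was measured in the same wells as the caspase-3/7 luminescence, on HepG2 cells exposed to DMSO-dissolved compounds for 16 hr at 37 C.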
# [8] = target: Nuclear receptor subfamily 1 group I member 2 (Homo sapiens) (UniProt O75469); assay: Human pregnane X receptor (PXR) small molecule agonists, qHTS assay (AID 1346982); further: nearly all actives have a fitted effect of over 35% in size; further: potency means the concentration at half of the fitted maximal effect
# Procedure, shortened: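 HepG2 PXR-Luc reporter line, 5% charcoal-stripped FBS; 5 hr pre-incubation, compound (DMSO) 24 hr at 37 C/5% CO2; ONE-Glo 30 min RT; luminescence read-out.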
# [9] = target: Acetylcholinesterase (Homo sapiens) (UniProt P22303); assay: Acetylcholinesterase (AChE) small molecule antagonists: enzyme-based qHTS assay with human liver microsomes (AID 1347399; calls by dose curve; further: nearly all actives have a fitted effect of over 60% in size); settings: Potency: qHTS inhibition
# Procedure, shortened: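 Recombinant human AChE (50 mU/mL in the enzyme mix) and human liver microsomes (0.25 mg/mL final) were preincubated with compound and NADPH (0.25 mg/mL final) for 30 min at 37 C. Acetylthiocholine/DTNB was then added; thiocholine was read colorimetrically after 10 min at room temperature.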
# [10] = target: Cytochrome P450 2D6 (Homo sapiens) (UniProt P10635); assay: Cytochrome P450 Family 2 Subfamily D Member 6 (CYP2D6) small molecule antagonists: luciferase reporter qHTS assay (AID 1671196); further: nearly all actives have a fitted effect of over 50% in size; further: potency means the concentration at half of the fitted maximal effect
# Procedure, shortened: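 Luminogenic proluciferin substrate, CYP2D6 enzyme; 10 min RT preincubation with compound, NADPH regeneration system added, 1 h RT. Stop/detection reagent, 20 min RT, luminescence read (RLU). Signal proportional to CYP activity.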
# [11] = target: Cytochrome P450 2C9 (Homo sapiens) (UniProt P11712); assay: Cytochrome P450 Family 2 Subfamily C Member 9 (CYP2C9) small molecule antagonists: luciferase reporter qHTS assay (AID 1671198); further: nearly all actives have a fitted effect of over 50% in size; further: potency means the concentration at half of the fitted maximal effect
# Procedure, shortened: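 P450-Glo proluciferin substrate with CYP2C9 enzyme; 10 min RT preincubation, then NADPH regeneration 1 h at 37C; luciferin detection reagent 20 min RT, luminescence in relative luminescence units.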
# [12] = target: Voltage-gated inwardly rectifying potassium channel KCNH2 (Homo sapiens) (UniProt Q12809); assay: Human Ether-a-go-go-Related Gene (hERG) channel small molecule antagonists: fluorescence cell-based qHTS assay (AID 1671200); further: nearly all actives have a fitted effect of over 50% in size; further: potency means the concentration at half of the fitted maximal effect
# Procedure, shortened: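 Thallium flux as potassium surrogate: FluxOR II dye loaded 1 h at room temperature into hERG-expressing U2OS cells, then stimulus buffer added after 10 min. Kinetic 480 nm excitation/540 nm emission read, 2 min.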
# [13] = target: Cytochrome P450 3A4 (Homo sapiens) (UniProt P08684); assay: Cytochrome P450 Family 3 Subfamily A Member 4 (CYP3A4) small molecule antagonists: luciferase reporter qHTS assay (AID 1671201); further: nearly all actives have a fitted effect of over 50% in size; further: potency means the concentration at half of the fitted maximal effect
# Procedure, shortened: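 Recombinant human CYP3A4 converts a proluciferin substrate to luciferin over 1 h at room temperature after NADPH regeneration solution is added (compound preincubated 10 min); detection reagent stops reaction, luminescence read 20 min later as relative units.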
# [14] = Caspase-3/7 induction in CHO-K1 cells by small molecules, qHTS cell viability counter screen (AID 1346979); further: nearly all actives have a fitted effect of over 35% in size
# Procedure, shortened: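 Cytotoxicity counter screen: CellTiter-Fluor added to compound-treated wild-type CHO-K1 cells at 16 h (37C, 5% CO2), fluorescence measured 1 h later; same wells as caspase-3/7 measurement.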
SMILES,Potency [1],activation [2],Potency [3],activation [4],Potency [5],caspase-3/7 activation [6],Potency [7],Potency [8],Potency [9],Potency [10],Potency [11],Potency [12],Potency [13],Potency [14]
O=P(Cl)(Cl)c1ccccc1,inactive,inactive: 1.39%,inactive,inactive: -0.3%,inactive,inactive: 0.049%,inactive,inactive,inactive,inactive,inactive,inactive,inactive,–
CC(C)CCCCCCCOP(OCCCCCCCC(C)C)Oc1ccccc1,inactive,inactive: 2.17%,inactive,inactive: 0.13%,inactive,inactive: 0.946%,–,–,inactive,inactive,active: 39.9 µM,inactive,active: 17.8 µM,inactive
CCCCC(CC)CO[P+](=O)OCC(CC)CCCC (stereo not drawn),inactive,inactive: 1.09%,inactive,inactive: -0.189%,inactive,inactive: -0.731%,inactive,inactive,inactive,inactive,–,inactive,inactive,inactive
CCCCCCCCCCCCCC[P+](CCCCCC)(CCCCCC)CCCCCC,active: 48.8 µM,–,–,–,–,–,–,active: 4.31 µM,inactive,active: 0.316 µM,active: 20 µM,active: 0.615 µM,–,–
COP(=S)(Cl)OC,inactive,inactive: -2.2%,inactive,inactive: -0.0705%,inactive,inactive: -0.851%,inactive,inactive,inactive,–,active: 32 µM,inactive,inactive,inactive
Cc1cc([N+](=O)[O-])c(O)c([N+](=O)[O-])c1,inactive,–,–,–,–,inactive: 1.36%,–,inactive,inactive,–,active: 36 µM,inactive,inactive,–
O=[p+]1oc2ccccc2c2ccccc21 (stereo not drawn),inactive,inactive: 0.0437%,inactive,inactive: -0.111%,inactive,inactive: 1.29%,inactive,inactive,inactive,–,–,inactive,inactive,–
O=[N+]([O-])c1ccc([N+](=O)[O-])cc1,inactive,inactive: -1.87%,inactive,inactive: 1.28%,active: 48.6 µM,inactive: 3.33%,–,–,inactive,active: 44.8 µM,active: 31.7 µM,inactive,active: 25.2 µM,–
CCOC(=O)Cl,inactive,inactive: -1.58%,–,inactive: -0.108%,inactive,inactive: -0.213%,inactive,inactive,inactive,–,inactive,inactive,inactive,inactive
ClP(Cl)c1ccccc1,inactive,inactive: -1.46%,inactive,inactive: -0.341%,inactive,inactive: 1.64%,inactive,inactive,inactive,inactive,inactive,inactive,inactive,inactive
O=C1C2CC=CCC2C(=O)N1SC(Cl)(Cl)C(Cl)Cl (stereo not drawn),–,inactive: -7.16% and inactive: -6.52%,active: 13.5 µM,inactive: 14.4% and inactive: 19.9%,–,–,–,inactive,–,–,–,–,–,–
CN(C(=O)Cc1cccc2occc12)[C@H]1CC[C@@]2(CCCO2)C[C@@H]1N1CCCC1,inactive,inactive: -0.0321%,inactive,inactive: -0.144%,inactive,inactive: 0.273%,inactive,inactive,inactive,active: 0.199 µM,active: 39.7 µM,inactive,active: 22.3 µM,inactive
CCNC(C)Cc1ccc2c(c1)OCO2 (stereo not drawn),inactive,inactive: -0.998%,inactive,inactive: 1.14%,inactive,inactive: -0.0158%,inactive,inactive,inactive,active: 0.215 µM,inactive,inactive,inactive,inactive
O=C(Cl)OCCOC(=O)Cl,inactive,inactive: 1.14%,inactive,inactive: -0.523%,inactive,inactive: 0.483%,inactive,inactive,–,–,–,inactive,–,inactive
O=C(Cl)Oc1ccccc1,inactive,inactive: 0.655%,inactive,inactive: -0.302%,inactive,inactive: -0.715%,inactive,inactive,inactive,inactive,inactive,inactive,inactive,inactive
